Screens: PubChem, several laboratories
MC4R ag barr = human MC4R agonism via beta-arrestin; P32245; U2OS MC4R beta-arrestin complementation, luminescence; percent of melanotan II response, DMSO zero; activation, % at 8.9 µM; 360,000 tested, 0.98% active;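 active means activation above a per-plate cutoff, the mean activation of sample wells on that plate plus 3 SD, cut at about 8% in these data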
UUG fidelity = alters start codon recognition fidelity in yeast; S. cerevisiae UUG-firefly luciferase reporter, luminescence/redox ratio; activity score, % at 18.7 µM; actives 0.13% (n = 350,000); AID 602363;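 active = replicate mean at a twofold rise or more, about +100% in these data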;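 also: firefly luciferase made from a UUG start codon reports start codon fidelity; reporter light over untreated wells divided by growth signal over untreated wells; some hits fall short of that in this replicate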
HDAC3 inh = blocks human histone deacetylase 3. O15379. 320,000 tested, 0.15% active. inhibition, % at 8.3 µM. recombinant HDAC3, fluorogenic peptide/trypsin coupled, fluorescence; in the data active means inhibition above about 26%, passing the limit was not always enough
NALP1 inh = inhibitors of NALP1 inflammasome in yeast. S. cerevisiae NALP1/ASC/caspase-1 growth, X-gal OD620, 72 h. AID 2071. 280,000 tested, 0.61% active. inhibition, % at 10 µM; in the data active means inhibition mostly above about 24%, no sharp cut-off; inactive means mostly below about 32%
MC4R antagonist = antagonists of human melanocortin 4 receptor (MC4R) | P32245 | MC4R-expressing cells, MTII-stimulated cAMP, LANCE TR-FRET | inhibition, % at 6.5 µM | 360,000 tested, 0.48% active;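 active means inhibition above its plate's cutoff, the mean of tested wells on that plate plus 3 SD, cut at about 29% in these data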;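 further: 0% = Melanotan II alone and 100% = Melanotan II plus saturating MCL0020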
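Assay system: U2OS cells stably expressing human melanocortin 4 receptor (MC4R) / Dosing: 6.5 µM / Timing: compound 30 min, challenge 1 h, detection 1 h / Measured by: Eu-cAMP/anti-cAMP TR-FRET, emission 671 nm / Replicates: singlicate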
ALR H2O2 inh = inhibitors of human ALR sulfhydryl oxidase, primary screen, biochemical, H2O2 detection, HRP-luminol luminescence, single point. 290,000 compounds, 3.8% hits. inhibition, % (concentration not given with the values). purified ALR, DTT oxidation. AID 485317, 2010;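 active means mean and each replicate at 75% or more; inconclusive means only one of the two met; inactive means neither met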;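 further: stock transfer was 7.5 nL into about 7.5 µL; 0% = neutral wells and 100% = wells with inactivated enzyme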
MC4R barr conf = human MC4R beta-arrestin agonism confirmation; shares compounds with MC4R ag barr; 2,400 tested, 31% active; AID 602192; activation, % at 8.9 µM; U2OS MC4R beta-arrestin recruitment, luminescence; scaled DMSO 0%, Melanotan II 100%;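 active means mean activation across replicates above the hit cutoff set in the earlier primary screen, cut at about 8% in these data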
MOR DOR agonist = counter-screen for MC4R agonists: agonists of mu-delta opioid heterodimer; AID 602194; shares compounds with MC4R ag barr; U2OS PathHunter beta-arrestin, beta-gal luminescence; percent of deltorphin B response, DMSO zero; 2,400 tested, 5.8% active; activation, % at 9.2 µM;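 active means mean activation across replicates exceeds the hit threshold derived in the earlier primary screen, cut at about 18% in these data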;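 further: 100% = deltorphin B at 0.9 µM final and 0% = DMSO alone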
Starred values were filed as active, the others as inactive; · = no result given. Shown are actives, neighbours in structure and some others; about 4.2% of the full set was active somewhere.

1. O=C(CSc1ncnc2c1nnn2-c1ccc(F)cc1)NCc1ccco1
2. Cc1ccc(-n2nnc3c(SCC(=O)NCc4ccco4)ncnc32)cc1
3. O=C(Nc1ccncc1)C1c2ccccc2Oc2ccccc21
4. CCCCNS(=O)(=O)c1ccc(NC(=O)C2c3ccccc3Oc3ccccc32)cc1
5. O=C(/C=C/c1cc2ccccc2o1)c1ccccc1O
6. COc1ccc(O)c(C(=O)/C=C/c2cc3ccccc3o2)c1

Compound	1	2	3	4	5	6
MC4R antagonist	6	4	-2	3	20	-1
HDAC3 inh	0	3	1	-4	·	-11
ALR H2O2 inh	48	3	-15	·	·	-16
UUG fidelity	-12	-14	-1	-7	-12	-8
MC4R ag barr	1	13*	-3	13*	15*	3
NALP1 inh	-3	17	-5	14	15	·
MC4R barr conf	·	1	·	13*	2	·
MOR DOR agonist	·	5	·	6	3	·

The closing four records of the section before lead into the next.
3. O=C(Nc1ccncc1)C1c2ccccc2Oc2ccccc21
4. CCCCNS(=O)(=O)c1ccc(NC(=O)C2c3ccccc3Oc3ccccc32)cc1
5. O=C(/C=C/c1cc2ccccc2o1)c1ccccc1O
6. COc1ccc(O)c(C(=O)/C=C/c2cc3ccccc3o2)c1
7. Cn1cnc(S(=O)(=O)N2C[C@H](O)COC[C@@H]3O[C@H](CC(=O)NCc4ccc(F)cc4)CC[C@H]32)c1
8. Nc1nonc1-c1nc2ccccc2n1Cc1ccc(Cl)cc1
9. COc1cc(Cn2c(-c3nonc3N)nc3ccccc32)ccc1C
10. Cc1ccc(Cn2c(-c3nonc3N)nc3ccccc32)cc1
11. Cc1cccc(NC(=O)Nc2ccc3c(c2)C(=O)N(C)[C@H]2CC[C@H](CC(=O)O)O[C@H]2CO3)c1
12. CCC(=O)N(C)C[C@H]1Oc2cc(Br)ccc2S(=O)(=O)N([C@H](C)CO)C[C@@H]1C

Compound	3	4	5	6	7	8	9	10	11	12
MC4R antagonist	-2	3	20	-1	·	-6	-25	-1	·	·
HDAC3 inh	1	-4	·	-11	·	1	-7	·	·	·
ALR H2O2 inh	-15	·	·	-16	·	-11	-11	·	·	·
UUG fidelity	-1	-7	-12	-8	-4	-20	10	-19	4	9
MC4R ag barr	-3	13*	15*	3	·	11*	10*	5	·	·
NALP1 inh	-5	14	15	·	·	24	-5	-9	·	·
MC4R barr conf	·	13*	2	·	·	-1	-4	·	·	·
MOR DOR agonist	·	6	3	·	·	5	4	·	·	·

13. CC1(C)CC(N=c2cc(-c3ccccc3)oc3ccc(Cl)cc23)CC(C)(C)N1
14. OCCCN=c1cc(-c2ccccc2)oc2ccc(Cl)cc12
15. COc1ccccc1CNC(=O)C[C@@H]1CC[C@H]2[C@@H](COC[C@@H](O)CN2Cc2cccc(-c3ccncc3)c2)O1
16. O=C(COC(=O)/C=C/c1ccccc1)Nc1ccc2c(c1)OCCO2
17. O=C(COC(=O)/C=C/c1ccc(Cl)cc1)Nc1ccc2c(c1)OCCO2
18. CCCCC(CC)Cn1c(N)c(C#N)c2nc3ccccc3nc21 (stereo not drawn)

Compound	13	14	15	16	17	18
MC4R antagonist	14	-1	·	2	-6	-6
HDAC3 inh	·	13	·	0	-4	-3
ALR H2O2 inh	·	-1	·	-17	-16	-5
UUG fidelity	·	·	-8	-7	-9	-18
MC4R ag barr	24*	0	·	2	24*	17*
NALP1 inh	0	46	·	·	7	2
MC4R barr conf	6	·	·	·	3	19*
MOR DOR agonist	10	·	·	·	4	15

19. CN(C)CCCn1c(N)c(C#N)c2nc3ccccc3nc21
20. CCCNC(=O)Nc1ccc2c(c1)C(=O)N(C)[C@H]1CC[C@H](CC(=O)NCCCN(C)C)O[C@H]1CO2
21. Cc1nnc(SCC(=O)c2c(N)n(Cc3ccccc3)c(=O)n(C)c2=O)n1C
22. Cn1c(=O)c(C(=O)CSc2ccccc2)c(N)n(Cc2ccccc2)c1=O
23. CC1CCCCC1NC(=O)NC(=O)COC(=O)c1ccc(OC(F)F)cc1 (stereo not drawn)
24. O=C(Cc1ccccn1)N[C@@H]1CC[C@H](CCNS(=O)(=O)c2cccc(F)c2)O[C@H]1CO

Compound	19	20	21	22	23	24
MC4R antagonist	-1	·	19	-2	-1	·
HDAC3 inh	-86	·	-11	-4	·	·
ALR H2O2 inh	-9	·	-1	·	·	·
UUG fidelity	-4	-14	-9	·	2	-21
MC4R ag barr	-1	·	-3	30*	10*	·
NALP1 inh	·	·	12	-4	·	·
MC4R barr conf	·	·	·	1	3	·
MOR DOR agonist	·	·	·	9	9	·

25. C[C@@H]1CN([C@@H](C)CO)C(=O)c2cc(NS(C)(=O)=O)ccc2O[C@@H](C)CCCCO[C@@H]1CN(C)C(=O)Cc1ccccc1
26. COc1ccc2oc(-c3ccc(C)c(NC(=O)c4ccc(N5CCOCC5)c([N+](=O)[O-])c4)c3)nc2c1
27. Cc1cc(C)cc(-n2nnnc2SCC(=O)Nc2nc(-c3ccc(Cl)cc3)cs2)c1
28. O=C(CSc1nnnn1-c1ccccc1)Nc1nsc(-c2ccc(Cl)cc2)n1
29. Cc1ccc(-n2nnnc2SCC(=O)Nc2nc(-c3ccc(F)cc3)cs2)cc1C
30. Cc1nnc(SCC(=O)Nc2nc(-c3ccccc3)cs2)n1N

Compound	25	26	27	28	29	30
MC4R antagonist	·	1	4	7	3	5
HDAC3 inh	·	1	16	4	0	-1
ALR H2O2 inh	·	-6	-4	·	-3	14
UUG fidelity	16	-19	-14	·	-15	·
MC4R ag barr	·	11*	27*	16*	24*	1
NALP1 inh	·	14	-7	4	-7	26
MC4R barr conf	·	4	7	5	13*	·
MOR DOR agonist	·	4	3	4	4	·

31. CN(C)CCOc1nc(-c2ccccc2)nc2c1oc1ccccc12
32. CN(C)CCOc1ncnc2c1oc1ccccc12
33. Cc1ccc(C(=O)N/C(N)=N/c2nc3ccccc3o2)cc1
34. N/C(=N\c1nc2ccccc2o1)NC(=O)c1ccccc1
35. C[C@H](CO)N1C[C@H](C)[C@@H](CN(C)C)OCCCC[C@H](C)Oc2ccc(NS(=O)(=O)c3ccc(Cl)cc3)cc2C1=O
36. Cc1cc(SCc2cc(=O)[nH]c3ccccc23)nc2ccccc12

Compound	31	32	33	34	35	36
MC4R antagonist	-1	7	-4	15	·	-3
HDAC3 inh	11	-5	3	-2	·	3
ALR H2O2 inh	-3	-1	-4	-4	·	2
UUG fidelity	0	-4	-9	-11	-9	·
MC4R ag barr	16*	0	16*	14*	·	12*
NALP1 inh	-21	14	1	-2	·	11
MC4R barr conf	4	·	4	3	·	3
MOR DOR agonist	6	·	2	5	·	5

37. O=C(NCC[C@@H]1CC[C@H](NS(=O)(=O)c2ccccc2)[C@H](CO)O1)c1ccccc1F
38. CN1C(=O)c2cc(NS(=O)(=O)c3ccccc3Cl)ccc2OC[C@H]2O[C@@H](CC(=O)O)CC[C@@H]21
39. Cn1c(=N)n(CC(=O)c2ccc(Br)s2)c2ccccc21
40. N=c1n(CC(=O)c2ccc(Br)s2)c2ccccc2n1Cc1ccccc1
41. O=C(Nc1ccc(Cl)c(Cl)c1)N[C@@H]1CC[C@@H](CCn2cc(C3CC3)nn2)O[C@H]1CO
42. CC(C)(C)c1ccc(OCc2ccc(C(=O)N/N=C/c3ccc(O)c(O)c3)cc2)cc1
43. O=C(N/N=C/c1cccc(O)c1)c1ccc(COc2ccccc2Br)cc1
44. COCC(=O)N(C)C[C@@H]1Oc2cc(-c3cccnc3)ccc2S(=O)(=O)N([C@@H](C)CO)C[C@H]1C
45. N#Cc1ccc(-c2ccc3c(c2)[C@H]2[C@H](CCN2C(=O)C2CC2)[C@@H](CO)N3)cc1

Compound	37	38	39	40	41	42	43	44	45
MC4R antagonist	·	·	-5	-2	·	6	2	·	·
HDAC3 inh	·	·	3	-6	·	3	6	·	·
ALR H2O2 inh	·	·	·	2	·	·	4	·	·
UUG fidelity	12	-2	-19	12	8	·	·	7	19
MC4R ag barr	·	·	2	14*	·	25*	13*	·	·
NALP1 inh	·	·	7	21	·	-13	0	·	·
MC4R barr conf	·	·	·	13*	·	9.8*	6	·	·
MOR DOR agonist	·	·	·	18*	·	6	3	·	·
